Tested on: Balb/c mice with 4T1 tumors
Assay: 4T1-bearing tolerability study
Details: 3 mg/kg once or twice per week, 4T1-bearing Balb/c mice

SMILES | tolerability
COc1cc2cc(C(=O)N3C[C@@H](CCl)c4c3cc(OC(=O)N3CCN(C(=O)CCC(=O)N5CCN(C)CC5)[C@H]5CSSC[C@H]53)c3ccccc43)[nH]c2c(OC)c1OC [P-SS66C-CBI-TMI] | tolerated
COc1cc2cc(C(=O)N3C[C@@H](CCl)c4c3cc(OC(=O)N(CCC(=O)N3CCN(C)CC3)[C@H]3CCSSC3)c3ccccc43)[nH]c2c(OC)c1OC [P-SS60-CBI-TMI] | tolerated
COc1cc2cc(C(=O)N3CC(CCl)c4c3cc(OC(=O)N3CCN(C)C5CSSCC53)c3ccccc43)[nH]c2c(OC)c1OC (mixture of isomers) [Me-SS66C-CBI-TMI] | tolerated
COc1cc2cc(C(=O)N3C[C@@H](CCl)c4c3cc(OC(=O)N(CCC(=O)N3CCN(C)CC3)C3CCCCC3)c3ccccc43)[nH]c2c(OC)c1OC [P-CC60-CBI-TMI] | tolerated

From article PMC10141580, “Cyclic Dichalcogenides Extend the Reach of Bioreductive Prodrugs to Harness Thiol/Disulfide Oxidoreductases: Applications to seco-Duocarmycins Targeting the Thioredoxin System” (ACS Central Science, 2023)
